For 1 molecule, IC50 results are on record in article PMC3480357, “Fragment-Hopping-Based Discovery of a Novel Chemical Series of Proto-Oncogene PIM-1 Kinase Inhibitors” (PLoS ONE, 2012).

Sequences of proteins named here, by UniProt entry; tags and fusion partners are left off. A change or cut given only in a name is not applied to a line headed by its entry.
UniProt Q9P1W9: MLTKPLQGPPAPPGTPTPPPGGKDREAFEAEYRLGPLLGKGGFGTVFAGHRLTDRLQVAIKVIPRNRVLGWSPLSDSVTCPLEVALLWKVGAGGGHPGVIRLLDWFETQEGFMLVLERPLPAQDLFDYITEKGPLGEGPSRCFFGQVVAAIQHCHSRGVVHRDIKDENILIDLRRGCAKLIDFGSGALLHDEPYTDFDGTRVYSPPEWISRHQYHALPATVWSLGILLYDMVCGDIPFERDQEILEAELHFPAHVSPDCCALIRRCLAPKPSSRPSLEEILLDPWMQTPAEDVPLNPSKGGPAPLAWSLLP

The target of the assay is PIM-2 (Homo sapiens, UniProt Q9P1W9). The assay can be described thus: PIM-2 kinase ADP Hunter Plus assay. In kind it is biochemical. To be noted: 100 µM ATP. As for the experimental part:
Kinase activity was measured with the commercial ADP Hunter™ Plus assay (DiscoveRx Ref. #33-016), a homogeneous assay measuring ADP accumulation, as a universal product of kinase activity. The assay was conducted following the manufacturer’s recommendations and adapting the protein and substrate concentrations for optimal conditions. The kinase assay buffer was 15 mM HEPES, pH 7.4, 20 mM NaCl, 1 mM EGTA, 0.02% Tween-20, 10 mM MgCl2 and 0.1 mg/ml BGG (bovine γ-globulin). All PIM kinase assays were performed with 100 µM PIMtide ([…]) as the peptide substrate and 100 µM ATP. The protein concentrations were 50, 350 and 500 ng/µl for PIM-1, 2 and 3, respectively. To calculate the IC50 of the ETP-compounds, serial 1∶5 dilutions were prepared and the reaction was started with the addition of ATP. The reaction was incubated for 1 h at 25°C. Reagents A and B (DiscoveRx) were sequentially added to the wells, and the plates were incubated for 30 min at 37°C. Fluorescence counts were read in a Victor instrument (Perkin Elmer) with the recommended settings (544 and 580 nm as the excitation and emission wavelengths, respectively). Values were plotted against the inhibitor concentrations and fit to a sigmoid dose–response curve using GraphPad software.

One may read the IC50 as the concentration at which inhibition is half-maximal.

With `CN1CCC(CNc2ccc3ncc(-c4cccc(OC(F)(F)F)c4)n3n2)CC1` [Compound 3, reference compound], the IC50 came to 1 µM.
